Experimental data reported in patent publication US20170266284A1, “PERSONALIZED METHODS FOR TREATING DISEASE BY RADIOSENSITIZATION” (Shuttle Pharmaceuticals, LLC, priority 2014, published 2017).

Legend:
[1] = tested on: Anaplastic Astroyctomas (Grade 3 of 4); test: IUdR as radiosensitizer with RT in patients with high grade primary brain tumors, vs historical RT-alone controls; format: in vivo, human; details: patients with Anaplastic Astroyctomas (Grade 3 of 4), RT alone 24
Source text: (§1) Example 1: Efficacy of IUdR as a Radiosensitizing Agent Compared to Historical RT-Alone Controls for Treatment of High Grade Primary Brain Tumors
(§2) IUdR requires continuous IV infusion—not an ideal potential candidate for clinical use.

[2] = tested on: Glioblastoma Multiforme (Grade 4 of 4); test: as above; format: in vivo, human; details: patients with Glioblastoma Multiforme (Grade 4 of 4), RT alone 9
Source text: as §1, §2

Compound: O=c1[nH]c(=O)n([C@H]2C[C@H](O)[C@@H](CO)O2)cc1I [IUdR, 5-iodo-2′-deoxyuridine]
- Median Survival (Months) [1]: 39 Months
- Median Survival (Months) [2]: 15 Months
